Yeast UUG start-1 = alters start codon recognition fidelity in yeast; AID 602363; activity score, % at 18.7 µM; 350,000 tested, 0.13% active; S. cerevisiae UUG-firefly luciferase reporter, luminescence/redox ratio;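 active means replicate mean at a twofold rise or more, about +100% in these data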;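 further: firefly luciferase made from a UUG start codon reports start codon fidelity; reporter light over untreated wells divided by growth signal over untreated wells; some hits fall short of that in this replicate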
Statin myotox sup = suppression of simvastatin myotoxicity; C2C12 myotubes + simvastatin, ATP luminescence, 48 h; scaled: DMSO 0, geranylgeraniol control 100; rescue of ATP level, % at 7.49 µM; 330,000 tested, 0.78% active;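 active = mean ATP rescue above about 67%, or every replicate alone reaching that limit, limit read from the data, passing the limit was not always enough; inconclusive = no clear call, values can overlap the other calls; inactive = mean under the limit and some replicate under it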;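 also: myotubes were challenged with 10 µM simvastatin during compound exposure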
Rtt109 Vps75 = inhibitors of Candida albicans Rtt109/Vps75 histone acetyltransferase; Q5AAJ8; purified Rtt109/Vps75, ThioGlo CoA-SH fluorescence, 4 h; inhibition, % at 34.9 µM; 330,000 tested, 0.16% active;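 active = inhibition of at least 50% in every replicate; inconclusive = best replicate reaches 50% inhibition but some replicates fall short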
Cneo AK release = Cryptococcus neoformans lysis via adenylate kinase release. C. neoformans lysis, adenylate kinase release luminescence, 4 h; normalised: neutral wells 0, clomiphene wells 100. lysis activity, % at 15 µM. 360,000 tested, 0.2% active. AID 651654;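 active = mean lysis activity across replicates of at least 80%, whatever share of replicates individually reach that level; inactive = mean lysis activity below 80%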
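Material: C. neoformans cells; Schedule: 4 h static compound exposure, 37 °C, read 1 h post-reagent; Measured by: adenylate kinase release luminescence; Read-out: signal increase indicating cell lysis; Controls: Clomiphene as positive lysis control.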
CDK5 p35 inh = inhibitors of human CDK5/p35 kinase; Recombinant CDK5/p35, ADP-Glo luminescence, 60 min; inhibition, % at 10 µM; 330,000 tested, 0.01% active; AID 488839;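 active = highest replicate inhibition of at least 50% and at least 75% of replicates reaching 50%; inconclusive = only one of the two criteria met; inactive = both criteria failed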
Yeast UUG start-2 = yeast start codon fidelity modulation; S. cerevisiae UUG-start firefly luciferase, luminescence, 4 h; 100% means double the DMSO signal; activation, % at 38 µM; 540 tested, under 10 active; shares compounds with Yeast UUG start-1; AID 652061;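 active = signal increase whose fitted curve reaches an absolute level of 40 at a concentration under 10 µM; inactive = activity opposite to the expected increase, or the rest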
A number is an active result; i = inactive; ? = inconclusive; nt = not tested or not shown. A selection: hits, their analogues and other compounds. The true share with any hit is near 1%.

SMILES	Yeast UUG start-1	Statin myotox sup	Rtt109 Vps75	Cneo AK release	CDK5 p35 inh	Yeast UUG start-2
C[C@H](CO)N1C[C@H](C)[C@@H](CN(C)CC2CCCCC2)OCCCC[C@H](C)Oc2ccc(NS(=O)(=O)c3cn(C)cn3)cc2C1=O	136.1	i	nt	i	nt	i
CC(C)NC(=O)Nc1cccc2c1O[C@H](CN(C)Cc1ccc(C(=O)O)cc1)[C@H](C)CN([C@H](C)CO)C2=O	131.8	i	nt	i	nt	i
CC(C)NC(=O)Nc1cccc2c1O[C@H](CN(C)Cc1ccccc1)[C@H](C)CN([C@@H](C)CO)C2=O	i	i	nt	i	nt	nt
C[C@@H]1CCCCO[C@H](CN(C)CC2CCCCC2)[C@@H](C)CN([C@H](C)CO)C(=O)c2cc(NS(=O)(=O)c3cn(C)cn3)ccc2O1	i	i	nt	i	nt	nt
C[C@H](CO)N1C[C@H](C)[C@H](CN(C)S(=O)(=O)c2ccc(Cl)cc2)Oc2ccc(NC(=O)Nc3cccc4ccccc34)cc2C1=O	i	i	nt	i	nt	nt
CC(C)N(C[C@H]1[C@H](c2ccccc2)[C@H](CO)N1S(C)(=O)=O)C(=O)CN(C)C	i	i	nt	i	nt	nt
CC(C)N(C[C@H]1[C@H](c2ccccc2)[C@@H](CO)N1S(C)(=O)=O)C(=O)CN(C)C	163.7	i	nt	i	nt	i
C/C=C/c1ccc2c(c1)O[C@@H](CN(C)C(=O)Nc1ccc(F)cc1)[C@H](C)CN([C@H](C)CO)S2(=O)=O	i	i	nt	i	nt	nt
COc1ccc([C@@H](OC(=O)Nc2ccc(SC)cc2)[C@@H](CCO)OC)cc1O	150.9	nt	nt	i	nt	i
CCC1=C(OC(=O)c2ccccc2)C(C)(C)C(c2ccccc2)OC1=O (configuration not stated)	105.4	i	i	i	i	i
CO[C@H]1CN(C)C(=O)c2ccc(NC(C)=O)cc2OC[C@H](C)N(Cc2nccs2)C[C@H]1C	i	i	nt	i	nt	nt
O=C(CN1CCOCC1)N[C@@H]1CC[C@H](CCNC(=O)C2CCCCC2)O[C@@H]1CO	i	i	nt	i	nt	nt
COc1ccccc1C(=O)NCC(=O)OCC(=O)c1ccc2c(c1)-c1ccccc1C2	551.0	i	i	i	i	i
CCOc1ccc(C(=O)NCC(=O)OCC(=O)c2ccc3c(c2)-c2ccccc2C3)cc1	nt	i	i	nt	i	nt
C[C@@H]1CCCCO[C@@H](CN(C)C(=O)Nc2cccc3ccccc23)[C@H](C)CN([C@@H](C)CO)C(=O)c2cc(NC(=O)Nc3ccc(F)cc3)ccc2O1	i	nt	nt	i	nt	nt
O=C(Nc1ccccc1F)N[C@H]1CC[C@H](CCNS(=O)(=O)c2ccc(F)cc2)O[C@H]1CO	153.5	i	nt	i	nt	i
O=C(NCC[C@H]1CC[C@H](NS(=O)(=O)c2cccc(F)c2)[C@H](CO)O1)C1CCCC1	i	i	nt	i	nt	nt
Cc1ccc(S(=O)(=O)N[C@H]2CC[C@H](CCNS(=O)(=O)Cc3ccccc3)O[C@@H]2CO)cc1	148.1	i	nt	i	nt	i
Cc1ccc(S(=O)(=O)N[C@@H]2CC[C@H](CCNS(=O)(=O)Cc3ccccc3)O[C@@H]2CO)cc1	i	i	nt	i	nt	nt
O=C(NCC[C@@H]1CC[C@H](NS(=O)(=O)c2cccc(F)c2)[C@H](CO)O1)C1CCCC1	145.2	i	nt	i	nt	i
C[C@@H]1CN([C@@H](C)CO)C(=O)c2cc(NC(=O)CCC(F)(F)F)ccc2O[C@H]1CN(C)Cc1ccncc1	i	i	nt	i	nt	nt
COC1(OC)C(/C=C/c2ccc(C)cc2)C(C#N)(C#N)C1(OC)OC (configuration not stated)	548.6	i	i	i	i	i
C/C=C/c1cnc2c(c1)C(=O)N([C@H](C)CO)C[C@H](C)[C@H](CN(C)C(=O)c1cnccn1)O2	137.3	i	nt	i	nt	i
C[C@H](CO)N1C[C@H](C)[C@@H](CN(C)C(=O)c2ccccn2)Oc2ncc(Br)cc2C1=O	201.8	i	nt	i	nt	i
C[C@@H]1CN([C@@H](C)CO)C(=O)Cc2cc(NC(=O)Nc3cccc4ccccc34)ccc2O[C@H]1CN(C)S(=O)(=O)c1cccs1	i	i	nt	i	nt	nt
SMILES	Yeast UUG start-1	Statin myotox sup	Rtt109 Vps75	Cneo AK release	CDK5 p35 inh	Yeast UUG start-2
CCCc1[nH]nc2c1C(Cc1ccccc1)C(C#N)=C(N)O2 (configuration not stated)	500.8	i	i	i	i	i
C[C@@H]1CN([C@H](C)CO)C(=O)c2cccc(NS(=O)(=O)c3ccc(Cl)cc3)c2O[C@H]1CN(C)C	i	i	nt	i	nt	nt
COc1ccc(C(=O)Nc2ccc3c(c2)C(=O)N(C)C[C@@H](OC)[C@H](C)CN(C(C)=O)[C@H](C)CO3)cc1	i	i	nt	i	nt	nt
O=C(c1ccc(Cn2c(=O)[nH]c3ccccc3c2=O)cc1)N1CCN(c2ccccc2)CC1	479.9	i	i	i	i	i
C[C@H](CO)N1C[C@H](C)[C@H](CN(C)S(=O)(=O)c2cccc(C#N)c2)OCc2ccccc2-c2c(n(C)c3ccccc23)C1=O	nt	i	nt	i	nt	nt
Cc1ccc(C)c(N2C(=N)S/C(=C\c3ccc(-c4ccccc4C(=O)O)o3)C2=O)c1	113.1	i	i	i	i	i
C[C@@H]1CN([C@@H](C)CO)S(=O)(=O)c2ccc(C#CC3CC3)cc2O[C@@H]1CN(C)Cc1cccc(F)c1	129.7	i	nt	i	nt	i
C[C@H]1CN([C@@H](C)CO)S(=O)(=O)c2ccc(C#CC3CC3)cc2O[C@@H]1CN(C)Cc1cccc(F)c1	i	i	nt	i	nt	nt
C[C@H]1CN([C@@H](C)CO)S(=O)(=O)c2ccc(C#Cc3cccc(F)c3)cc2O[C@@H]1CN(C)C	107.2	i	nt	94.3	nt	i
COc1ccc(-c2ccc3c(c2)O[C@H](CN(C)C(C)=O)[C@H](C)CN([C@H](C)CO)S3(=O)=O)cc1	i	i	nt	i	nt	nt
O=C(C[C@@H]1CC[C@H](NC(=O)c2cccc(F)c2)[C@@H](CO)O1)NCc1ccc(Oc2ccccc2)cc1	144.6	i	nt	i	nt	i
C[C@@H]1CCCCO[C@@H](CN(C)S(=O)(=O)c2cccs2)[C@@H](C)CN([C@@H](C)CO)C(=O)c2cc(NC(=O)C3CCCCC3)ccc2O1	i	nt	nt	i	nt	nt
CC1Sc2ccc(C(=O)N(CCc3ccccc3)Cc3ccccc3)cc2NC1=O (configuration not stated)	102.9	i	nt	i	nt	i
CCCC(=O)Nc1ccc2c(c1)OC[C@H](C)N(Cc1ccccc1)C[C@@H](C)[C@H](OC)CN(C)C2=O	i	i	nt	i	nt	nt
Cc1nn(CC(=O)N2CCN(c3ccccc3)CC2)c(=O)c2ccccc12	i	i	i	i	i	i
COc1ccc(OC)c(NC(=O)Cn2cc(C(=O)c3ccco3)c3ccccc32)c1	134.4	i	?	i	i	i
COc1ccc(OC)c(NC(=O)Cc2nn(C)c(=O)c3ccccc23)c1	i	i	i	i	i	i
COc1ccc(N2CCN(C(=O)Cc3nn(C)c(=O)c4ccccc34)CC2)cc1	i	i	i	i	i	i

Compound activity (PubChem BioAssay)
